Data reported in US20260200942A1, “PARP7 INHIBITORS AND THEIR APPLICATIONS” (CHONGQING PHARSCIN INNOBIO CO., LTD., priority 2023, published 2026).

Chains of the proteins cited; added tags and fusions are not shown.
UniProt Q7Z3E1, whole entry: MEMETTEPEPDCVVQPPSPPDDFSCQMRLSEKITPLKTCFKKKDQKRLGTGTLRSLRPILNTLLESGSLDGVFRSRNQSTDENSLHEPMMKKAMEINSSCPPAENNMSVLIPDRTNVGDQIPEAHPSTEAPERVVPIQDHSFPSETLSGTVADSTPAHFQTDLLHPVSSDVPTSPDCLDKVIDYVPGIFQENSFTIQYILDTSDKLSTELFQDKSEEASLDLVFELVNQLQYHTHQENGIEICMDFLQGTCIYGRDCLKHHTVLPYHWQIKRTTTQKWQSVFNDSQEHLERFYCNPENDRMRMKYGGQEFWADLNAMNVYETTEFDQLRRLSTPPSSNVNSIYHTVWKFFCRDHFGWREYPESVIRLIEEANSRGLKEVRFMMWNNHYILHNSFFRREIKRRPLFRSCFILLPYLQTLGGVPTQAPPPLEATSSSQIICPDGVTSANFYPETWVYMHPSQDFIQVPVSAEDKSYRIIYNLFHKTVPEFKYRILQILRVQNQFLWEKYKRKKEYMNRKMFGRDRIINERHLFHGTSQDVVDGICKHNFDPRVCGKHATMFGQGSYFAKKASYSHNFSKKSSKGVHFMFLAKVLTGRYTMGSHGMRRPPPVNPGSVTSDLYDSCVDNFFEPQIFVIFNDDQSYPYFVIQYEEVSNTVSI

Target: PARP7 (Homo sapiens, UniProt Q7Z3E1)
Assay: PARP7 inhibitory activity assay (histone-coated 384-well plate, chemiluminescence)
Details: read-out: PARP7 IC50

Compound	IC50 [nM]
CC(NC1CC(C(=O)N2CCN(c3ncc(C(F)(F)F)cn3)CC2)C1)c1cc(C(F)(F)F)c(=O)[nH]n1 (centres unmarked)	10 to 100
CC(c1cc(C(F)(F)F)c(=O)[nH]n1)N1CC(C(=O)N2CCN(c3ncc(C(F)(F)F)cn3)CC2)C1 (centres unmarked)	10 to 100
